Test results published in ChEMBL document CHEMBL1136743, “Design, synthesis, and biological evaluation of C9- and C2-substituted pyrazolo[4,3-e]-1,2,4-triazolo[1,5-c]pyrimidines as new A2A and A3 adenosine receptors antagonists” (J Med Chem, 2003).

How the values were obtained:
Adenosine receptor A2a [1] = target: T1, Adenosine receptor A2a (Homo sapiens, UniProt P29274); assay: biochemical
Adenosine receptor A2a [2] = target: T1, Adenosine receptor A2a; conditions: cho

| Ki (Adenosine receptor A2a [1]) | Ki (Adenosine receptor A2a [2]) | SMILES |
| --- | --- | --- |
| > 1000 nM | – | Nc1nc2c(cnn2CCc2ccccc2)c2nc(-c3ccc(O)cc3)nn12 |
| – | 10 nM | CCNc1c2c(nc(N)n3nc(-c4ccco4)nc23)nn1C |
